# ChEMBL document CHEMBL3352357, “Synthesis and pharmacological evaluation of 5-pyrrolidinylquinoxalines as a novel class of peripherally restricted κ-opioid receptor agonists” (J Med Chem, 2014)
# Protein sequences, listed by entry. Tags and fused reporters are not part of them.
# UniProt P41143, whole entry: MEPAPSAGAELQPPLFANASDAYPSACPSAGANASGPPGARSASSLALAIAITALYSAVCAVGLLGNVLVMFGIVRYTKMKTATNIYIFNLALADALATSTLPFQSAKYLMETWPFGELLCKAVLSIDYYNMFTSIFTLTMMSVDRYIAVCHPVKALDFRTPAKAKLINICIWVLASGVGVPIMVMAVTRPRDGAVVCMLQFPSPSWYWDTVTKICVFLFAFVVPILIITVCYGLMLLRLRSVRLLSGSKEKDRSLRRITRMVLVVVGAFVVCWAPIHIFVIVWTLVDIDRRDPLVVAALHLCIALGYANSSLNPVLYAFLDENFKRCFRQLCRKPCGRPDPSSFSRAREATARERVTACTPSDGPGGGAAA
# UniProt Q60492, whole entry: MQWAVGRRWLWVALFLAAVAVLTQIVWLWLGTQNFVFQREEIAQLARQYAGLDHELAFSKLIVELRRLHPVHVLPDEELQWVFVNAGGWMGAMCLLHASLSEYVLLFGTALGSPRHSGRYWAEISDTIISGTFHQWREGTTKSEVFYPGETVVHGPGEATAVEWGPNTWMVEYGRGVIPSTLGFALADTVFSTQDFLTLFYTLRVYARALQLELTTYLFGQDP
# Experiments:
# [1] = molecular target: Delta-type opioid receptor (Homo sapiens, UniProt P41143); experiment: Displacement of [3H]-deltorphine from human delta opioid receptor expressed in CHO-K1 cells at 10 uM by scintillation counting analysis; format: cell-based
# [2] = molecular target: Sigma non-opioid intracellular receptor 1 (Cavia porcellus) (UniProt Q60492); experiment: Displacement of [3H]-(+)-pentazocine from sigma-1 receptor in guinea pig brain cortex membranes at 10 uM; format: cell membranes; details: Cerebral cortex
SMILES,inhibition [1],inhibition [2]
O=C(c1ccccc1)N1CCN(C(=O)Cc2ccc(Cl)c(Cl)c2)C2C(N3CCC(O)C3)CCCC21 (centres undefined),22%,16%
COC(=O)N1CCN(C(=O)Cc2ccc(Cl)c(Cl)c2)[C@H]2[C@H]1CCC[C@@H]2N1CCCC1,–,0%
O=C(c1ccccc1)N1CCN(C(=O)Cc2ccc(Cl)c(Cl)c2)C2C(N3CCCC3)CCCC21 (centres undefined),15%,21%
O=C(Cc1ccc(Cl)c(Cl)c1)N1CCN(Cc2cnc[nH]2)C2CCCC(N3CCCC3)C21 (centres undefined),27%,15%
CCC(=O)N1CCN(C(=O)Cc2ccc(Cl)c(Cl)c2)C2C(N3CCCC3)CCCC21 (centres undefined),10%,0%
